{
  "sequences": {"note": "By UniProt entry, the sequences of proteins in these tests, tags left out.", "UniProt P05177, whole entry": "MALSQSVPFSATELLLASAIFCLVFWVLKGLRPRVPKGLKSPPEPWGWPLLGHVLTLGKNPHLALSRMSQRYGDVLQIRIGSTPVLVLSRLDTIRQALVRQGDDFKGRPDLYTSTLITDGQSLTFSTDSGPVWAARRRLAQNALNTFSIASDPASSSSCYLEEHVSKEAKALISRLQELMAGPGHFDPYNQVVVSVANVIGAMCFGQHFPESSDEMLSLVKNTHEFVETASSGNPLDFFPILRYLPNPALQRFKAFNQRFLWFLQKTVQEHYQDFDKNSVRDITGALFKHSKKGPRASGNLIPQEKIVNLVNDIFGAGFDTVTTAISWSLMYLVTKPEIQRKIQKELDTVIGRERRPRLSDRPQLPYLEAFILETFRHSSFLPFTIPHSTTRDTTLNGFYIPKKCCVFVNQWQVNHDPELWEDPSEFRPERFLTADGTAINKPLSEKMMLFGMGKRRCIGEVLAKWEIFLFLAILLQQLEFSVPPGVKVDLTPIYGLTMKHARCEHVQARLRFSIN"},
  "source": "patent US20250312469A1",
  "about": "(CANGET BIOTEKPHARMA, priority 2024, published 2025)",
  "biological_target": "CYP1A2 (Homo sapiens, UniProt P05177)",
  "settings": "microsomes",
  "description": "The CYP reaction was initiated by adding a CYP probe substrate and incubating at 37° C. for 10-20 minutes, depending on the individual CYP isoform. The reaction was terminated with the addition of 400 μL ice-cold acetonitrile (ACN). […] Positive controls were performed in parallel using a known inhibitor of the individual CYP isoform. […] The samples were then transferred to 96-well plates and analyzed by LC-MS/MS (Appendix 1).",
  "data": [
    {"smiles": "O=c1cc(-c2ccccc2)oc2c1ccc1ccccc12", "note": "[α-Naphthoflavone]", "values": [
      {"measurement": "% Inhibition (Positive Control)", "value": 92.1, "unit": "%"}
    ]}
  ]
}
